Laboratory results taken from patent publication US20160362460A1 (Pieris, published 2016).

Molecular target: Fc-gamma receptor hFcγ RI/CD64 (R&D Systems) (human) (UniProt P12314)
Experiment: SPR, biotinylated binder captured on CAP chip, receptor as analyte, 1:1 fit (kd/ka)

Reference Molecule 2 (comprising the amino acids shown in SEQ ID NOs: 103 and 104) (antibody; other documents disagree on this pair)
Kd: 78 pM
